Measured values from patent US20050118658A1, “Use of ERRalpha phosphorylation status as a breast cancer biomarker” (priority 2003, published 2005).

Tests used:
BT-474 cells = settings: literature statement; cited from earlier work
MCF-7 cells [1] = settings: literature statement; cited from earlier work
MCF-7 cells [2] = assay: 7 day growth assay, DNA content per well, MCF-7 cells; settings: trastuzumab, 7 days
ERRα = assay: Immunoblot analysis of ERRα expression in ERRα-transfected BT-474 cells; type: cell-based, human; settings: BT-474 cells transfected with ERRα, 48 h; 20 μg/ml trastuzumab, 1 μM gefitinib, 20 μM U0126 or 20 μM LY294002
Protocol: BT-474 cells were co-transfected in parallel with the ERE(5x)-regulated and TATA dual-luciferase reporter gene sets along with the indicated expression plasmids. […] In panel (B), the cells were incubated for 48 h in estrogen-free medium supplemented with dimethyl sulfoxide as the drug vehicle control, 20 μM U0126 (MEK inhibitor), or 20 μM LY294002 (PI3K inhibitor) as indicated. After incubation for 48 h, the cells were harvested for dual-luciferase assays. Data were analyzed as described in the legend to FIG. 2. (C) Immunoblot analysis of protein extracts (20 μg per sample) prepared from BT-474 cells treated as in panels A and B above for luciferase activity. The membrane was probed with antibodies that react specifically with ERRα. Reactive proteins were visualized by enhanced chemiluminescence and autoradiography. […]
Proteins were extracted in Cell Lysis Buffer (Cell Signaling Technology, Beverly, Mass.) supplemented with Protease Inhibitor Cocktail Set III and Phosphatase Inhibitor Cocktail Set II (Calbiochem). Protein amounts were quantified with Coomassie Protein Assay Reagent (Pierce Biotechnology) with BSA as the standard. […] Reacting material was detected using horseradish peroxidase-conjugated secondary antibodies (Jackson ImmunoResearch Laboratories, West Grove, Pa.) together with enhanced chemiluminescence (Amersham Pharmacia) and autoradiography.

[3] = test system: ERRα1-mediated constitutive activation of ERE-regulated transcription in BT-474 cells; assay: Transient transfection dual-luciferase assay of ERRα1-mediated ERE-regulated transcription in BT-474 cells; type: cell-based, human; settings: 20 μg/ml trastuzumab, 48 h, estrogen-free medium, BT-474 cells over-expressing ERRα1
Protocol: BT-474 cells were co-transfected in parallel with the ERE(5x)-regulated and TATA dual-luciferase reporter gene sets along with the indicated expression plasmids. […] In panel (B), the cells were incubated for 48 h in estrogen-free medium supplemented with dimethyl sulfoxide as the drug vehicle control, 20 μM U0126 (MEK inhibitor), or 20 μM LY294002 (PI3K inhibitor) as indicated. After incubation for 48 h, the cells were harvested for dual-luciferase assays. Data were analyzed as described in the legend to FIG. 2. (C) Immunoblot analysis of protein extracts (20 μg per sample) prepared from BT-474 cells treated as in panels A and B above for luciferase activity. The membrane was probed with antibodies that react specifically with ERRα. Reactive proteins were visualized by enhanced chemiluminescence and autoradiography. (D) Immunoblot analysis as in panel C above, only the membrane was probed with antibodies that react specifically with phosphorylated Akt (p-Akt), total Akt, phosphorylated MAPK (p-MAPK) or total MAPK.

Substance: trastuzumab
- effect on growth of BT-474 cells (known, ref. 26) (BT-474 cells): significantly inhibit the growth
- effect on growth of MCF-7 cells (known, ref. 35) (MCF-7 cells [1]): affect only minimally the growth
- effect on growth of MCF-7 cells (MCF-7 cells [2]): did not significantly block growth
- ERRα expression (immunoblot) (ERRα): expression was maintained
- inhibition of ERRα1's activity [3]: approximately 85%
